The target of this assay is PT immobilized in microtiter wells (Bordetella pertussis, UniProt P04978+P04979). Particulars: read-out: IC50 for inhibition of the binding of ACS2P1-biotin to PT; n=2; ACS2P1-biotin 10 μg/ml.

By UniProt entry, the sequences of proteins in these tests, tags left out. Where a name states a change or a piece, a line headed by the entry shows the natural chain unless it says otherwise.
UniProt P04978: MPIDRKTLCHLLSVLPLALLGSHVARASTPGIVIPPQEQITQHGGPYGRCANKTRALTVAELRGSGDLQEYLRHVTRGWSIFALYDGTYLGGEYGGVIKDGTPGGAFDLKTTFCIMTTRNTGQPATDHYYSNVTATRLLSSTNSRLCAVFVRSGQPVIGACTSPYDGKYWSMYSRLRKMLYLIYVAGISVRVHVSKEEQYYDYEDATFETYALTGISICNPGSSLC
UniProt P04979: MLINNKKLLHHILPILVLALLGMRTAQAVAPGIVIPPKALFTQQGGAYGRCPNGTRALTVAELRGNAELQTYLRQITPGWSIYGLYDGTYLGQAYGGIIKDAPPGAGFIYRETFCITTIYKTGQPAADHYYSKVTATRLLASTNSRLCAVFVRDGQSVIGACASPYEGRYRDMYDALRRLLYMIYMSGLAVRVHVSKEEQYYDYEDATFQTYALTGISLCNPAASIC

The IC50 is the concentration that inhibits the measured activity by half. For fetuin [reference compound], the IC50 worked out at 50 µM.

The values are drawn from patent US20020054880A1, “Anti-inflammatory, tolerogenic and immunoinhibiting properties of carbohydrate binding-peptides” (priority 1992, published 2002).
